Test results from patent US7183251B1, “hCG therapy for the treatment of breast cancer” (Fox Chase Cancer Center, priority 1998, dated 2007).
Several values for one entry are separate records, joined by “and”; a condition that tells them apart may be missing. Equal entries are not always repeated.

Tests used:
[1] = system: DMBA-induced rat mammary carcinomas; assay: Prevention of DMBA-induced rat mammary carcinomas (Regimens 1-3); format: in vivo
Method: Evaluation of the efficacy of r-hCG in the prevention of mammary cancer: Regimens 1–9 utilized in the experiments described below are shown schematically in FIG. 4. The animals utilized in Regimens 1–9 consisted of 450 intact virgin Sprague-Dawley rats that were purchased from Taconic Farms (New York, N.Y.).
The potential of hCG to inhibit the initiation of DMBA-induced rat mammary carcinomas was evaluated in intact virgin rats treated with placebo (Regimen 1); 100 IU r-hCG/day (Regimen 2), or 100 IU u-hCG/day (Regimen 3). All animals were injected daily for 21 days, starting when the rats were 45 days old. The carcinogen DMBA was administered as a single intragastric dose (8 mg/100 g body weight) given 21 days after the last injection of placebo or hormone. Under these protocols the first effect evaluated was the appearance of tumors detected by palpation and their location with regards to specific mammary glands. Other parameters evaluated were the rate of tumor growth, tumor ulceration, and tumor regression or ulcer healing and tumor necrosis in response to the hormonal treatment.
All treatments were initiated when the animals were 45 days old. For Regimen 1 fifty rats received a daily intraperitoneal (ip) injection of 0.5 ml placebo for 21 days. Under Regimens 2 and 3 the same number of animals received for 21 days 100 IU/day of r-hCG or u-hCG (Steris Laboratories, Phoenix, Ariz.) respectively. Twenty-one days after completion of the last injection, when the animals were 87 days old, the three groups of animals were inoculated with a single intragastric (ig) dose of 8 mg DMBA (Sigma Chemical Co., St. Louis, Mo.) per 100 g body weight (bw). Thereafter all the animals were palpated periodically for detection of tumor development and determination of tumor growth rate. Final tumorigenic response was evaluated 15 weeks after administration of DMBA.
Evaluation of Final Tumorigenic Response. […] The tumors were rapidly dissected, measured in three dimensions, and serially sliced. Adjacent slices were:
The following criteria were utilized for evaluating the final tumorigenic response:
1. Rate of tumor growth, based on sequential measurement of the two largest diameters of tumors in live animals utilizing a Vernier Caliper and expressing the results in mm.
2. Final tumor size, based on measurement of the length, width and height of dissected tumors with a Vernier Caliper. Results were expressed in mm. A progressively smaller tumor size in successive measurements was indicative of tumor regression. Palpable tumors that had disappeared at the time of dissection were considered to be 100% regressed. The mammary tissue in which the tumor had been originally identified was fixed in 10% NBF for histopathological analysis.
5. Statistical Analysis. The significance of the differences in tumorigenic response among the groups was determined by Chi Square analysis and Student's T test.

estrogen receptor (ER) = assay: r-hCG in primary breast cancer: estrogen receptor immunocytochemistry; format: in vivo, human; details: positive = greater than 20% of tumoral cells, 2-week r-hCG treatment
Method: The efficacy of hCG was evaluated by treating with this hormone patients with newly diagnosed primary breast cancer. The efficacy of treatment was assessed by determining whether administration of 10,000 IU hCG on alternate days for 2 weeks to women with newly diagnosed breast cancer will reduce tumor size, inhibit cell proliferation, and modify the percentage of cells expressing estrogen and progesterone receptors. The systemic effect of the hormone was evaluated by determining serum levels of pituitary and ovarian hormones at various times of treatment. R-hCG was used in this study.
Hormonal Treatment: Dose and Schedule. […] The efficacy of treatment was assessed by evaluating in the residual tumor resected by lumpectomy or mastectomy at the end of the two-week r-hCG treatment the same parameters evaluated in the initial core needle biopsies.
Surrogate Marker Analysis. The effects of r-hCG on the breast tumors was evaluated by using immunocytochemistry, performed in both core biopsies of the tumor and in residual tumor present in lumpectomy or mastectomy specimens. The following surrogate markers were evaluated using immunocytochemistry: Rate of cell proliferation, percentage of cells positive for estrogen (ER) and progesterone receptors (PgR) and immunoreactivity for inhibin. […]

[2] = 100 IU/day ip 21 days before DMBA, Regimens 2, 3

## r-hCG: recombinant human chorionic gonadotropin, glycoprotein hormone composed of two non-covalently linked (α and β) subunits
[1]; [2]
  No. Tumors/Animal: 0.10
  Percentage (animals with tumors): 8.1
  Total No. Tumors: 5
[1]; 100 IU/day ip 21 days from age 45 days, DMBA 21 days after last injection, 15 weeks post-DMBA
  No. An. With Tumors: 4/49 and 4
Estrogen receptor (ER)
  cases with decrease in ER status from positive NB to negative Exc.B: six
Estrogen receptor (ER); listed as Recombinant hCG
  cases with decrease in ER status from positive NB to negative Exc.B: six out of nine
